The nature of this data set: in vivo. The settings on record: C57BL/6, mouse, brain, ip, 5 mg/kg.

Structures are written as SMILES.

Compound `COc1cc(/C=C/C(=O)NCCn2c(C(F)(F)F)cc3ccccc32)cc(OC)c1OC` returned a Kp of 1.6.

The record behind these values is ChEMBL document CHEMBL5223088, “EP2 Antagonists (2011-2021): A Decade's Journey from Discovery to Therapeutics” (J Med Chem, 2021).
